Values quoted from earlier work, collected in patent publication US7176183B2, “Methods for treating and preventing damage to mucosal tissue” (University of Southern California, priority 1999, dated 2007).

Biological target: T1, AT2 receptor (Homo sapiens, UniProt P50052)
T1 sequence (P50052 1-363): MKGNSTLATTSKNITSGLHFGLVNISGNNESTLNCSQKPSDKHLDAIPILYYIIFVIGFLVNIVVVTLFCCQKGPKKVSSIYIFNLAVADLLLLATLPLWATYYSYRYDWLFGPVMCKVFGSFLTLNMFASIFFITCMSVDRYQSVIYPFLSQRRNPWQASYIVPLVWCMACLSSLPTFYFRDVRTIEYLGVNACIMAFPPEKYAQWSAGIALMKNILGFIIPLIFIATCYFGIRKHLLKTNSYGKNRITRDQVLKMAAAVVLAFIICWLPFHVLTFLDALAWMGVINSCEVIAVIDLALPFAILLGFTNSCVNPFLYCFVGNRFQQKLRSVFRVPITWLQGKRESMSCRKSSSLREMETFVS
Conditions: experimental models tested; cited from earlier work

Substance: Asp-Arg-Val-Tyr-Ile-Xaa-Pro-Phe [p-aminophenylalanine6-AII]
- Binding characteristics: comparable to AT2 antagonists
